Measured affinities in a library of Ab-95 light chain variants

Data: MIT Lincoln Laboratory AlphaSeq set, Engelhart et al. 2022, doi:10.1038/s41597-022-01779-4, as distributed in FLAb.

Antigen: PDVDLGDISGINAS, a 14-residue peptide of the SARS-CoV-2 spike HR2 region.

Each scFv is VH, a (GGGGS)3 linker, VL, as in the parent Ab-95, and differs from it in the CDRs of the light chain only.
VH: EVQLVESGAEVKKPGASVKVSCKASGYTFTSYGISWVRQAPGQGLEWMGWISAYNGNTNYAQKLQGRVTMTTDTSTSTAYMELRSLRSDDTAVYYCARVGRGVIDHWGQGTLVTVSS
VL: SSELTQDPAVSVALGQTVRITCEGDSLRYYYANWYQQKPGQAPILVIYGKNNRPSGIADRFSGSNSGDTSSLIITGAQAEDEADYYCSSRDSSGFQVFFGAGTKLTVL

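The starting antibody came from a phage panning campaign against this peptide. Library AAYL52 holds single substitutions and randomly drawn double and triple substitutions in the CDRs. The assay is AlphaSeq: two haploid yeast populations carry antibody and antigen on their surface. After mating in shaken culture at 30 °C for 16 h, diploids were selected and their barcode pairs sequenced. The ratio of observed to expected reads was calibrated, replicate by replicate, on BCL2-family standards whose Kd was known from biolayer interferometry. Each pool was mated in three replicate cultures.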

Positions count from residue 1 of the parent VL; N33T puts T in place of N.
All variants listed here change V97 of the VL, counted from its first residue.
Numbers give log10(Kd / nM), so 0 is 1 nM and 3 is 1 µM. Smaller is tighter.
A pair that was not seen in that replicate is written "ND"; this usually means weak binding, but a binder can also be missed.

With N33T/Q96K/V97C the result was 4.36, ND, ND.
With N51W/V97A the result was ND, 3.82, 2.81.
With N52E/V97A the result was 2.17, 2.28, 2.66.
With Y29N/D91Q/V97F the result was 1.62, 1.48, 0.91.
With V97C the result was 3.29, ND, ND.
With R28F/Q96M/V97Q the result was ND, ND, 3.99.
With Y30V/S89L/V97I the result was 3.11, ND, ND.
With G94K/Q96E/V97N the result was ND, ND, ND.
With R53Y/S92I/V97Q the result was ND, ND, ND.
With S26R/G49F/V97T the result was ND, 4.48, 4.21.
With Y31N/Q96W/V97W the result was 3.52, 2.43, 3.48.
With Y30R/Y31C/V97P the result was 1.88, 1.99, 1.65.
With N52Y/V97Y the result was 3.00, 2.39, 2.82.
With S26R/R90G/V97C the result was ND, ND, ND.
With G24C/S55M/V97W the result was 4.20, ND, 3.00.
With R53Q/V97S the result was ND, 5.09, ND.
With E23I/S93G/V97I the result was 3.94, 3.28, ND.
With Y29E/G49V/V97A the result was 3.22, ND, ND.
With G24W/S26H/V97S the result was 4.02, ND, 4.03.
With R53Y/D91T/V97A the result was 3.16, 5.44, ND.
With N52W/F95S/V97A the result was ND, ND, ND.
With E23W/F95N/V97W the result was 4.13, 3.23, ND.
With R28M/S88C/V97H the result was 2.95, ND, ND.
With E23K/S88C/V97W the result was ND, ND, ND.
With R53L/S55V/V97N the result was ND, 3.87, ND.
With A32I/Q96M/V97A the result was 4.80, 3.63, 3.49.
With N51A/P54H/V97M the result was 1.76, 3.58, ND.
With S26A/Y30F/V97N the result was ND, ND, 3.91.
With Y31S/N33W/V97D the result was 3.92, ND, ND.
With Y31T/V97Y the result was 3.35, 3.56, 3.00.
With A32W/R53A/V97I the result was ND, 3.72, ND.
With D25F/A32N/V97R the result was ND, ND, ND.
With D25Y/V97T the result was ND, 5.05, ND.
With Y30W/S93E/V97H the result was 4.21, 2.69, 1.74.
With D25K/Y31D/V97D the result was 1.58, 1.68, 1.23.
With N51H/S89D/V97H the result was 4.22, 2.21, ND.
With N52A/P54R/V97D the result was ND, ND, ND.
With G24Q/S92N/V97Q the result was ND, ND, ND.
With N51H/D91P/V97R the result was 4.09, ND, ND.
With G49K/V97I the result was ND, 5.49, 3.44.
With Y29T/V97G/F98W the result was 2.21, 1.97, 1.86.
With G24N/G49K/V97M the result was ND, ND, ND.
With E23R/R28N/V97G the result was 3.50, 5.07, 3.95.

Again, the first 7 entries without any signal:

{"changes": "G94K/Q96E/V97N", "log10 Kd, replicates": "ND, ND, ND"}
{"changes": "R53Y/S92I/V97Q", "log10 Kd, replicates": "ND, ND, ND"}
{"changes": "S26R/R90G/V97C", "log10 Kd, replicates": "ND, ND, ND"}
{"changes": "N52W/F95S/V97A", "log10 Kd, replicates": "ND, ND, ND"}
{"changes": "E23K/S88C/V97W", "log10 Kd, replicates": "ND, ND, ND"}
{"changes": "D25F/A32N/V97R", "log10 Kd, replicates": "ND, ND, ND"}
{"changes": "N52A/P54R/V97D", "log10 Kd, replicates": "ND, ND, ND"}

As a blank, each scFv also met three strains without target: over library AAYL52, 28% of these pairings were detected, typically at 3.91 and seldom below 2.90.
Parent in this assay: reference entry 2.31, copy in this library 2.25.